Data reported in article PMC11305080 (Cell reports, 2024).

Target: T1, HIT01-K21Q-R218E (cleavage-resistant variant of HIT01) (Designed: Pangasianodon hypophthalmus …, UniProt A0A5N5LAK0;PRINTED, chimera)
T1 construct: also called HIT01-K21Q-R21E; HIT01-R21Q-R218E; source: Expi293 cells, transient transfection, purified (Ni-NTA, strep chromatography, SEC); not shown: His tag, C-terminal, kept
Assay: BLI; PCSK9 or variant proteins (50 μg/mL in PBS) loaded onto Ni-NTA biosensors by their C-terminal histidine tags; antibody Fab in solution (0.00625–0.4 μM); 1x Kinetics Buffer; association 300 s, dissociation 600 s
Conditions: both partners purified

fold higher affinity than to human PCSK9: > 8 fold
B1: 1D05 Fab (Fab, V domains shown)
VH: QVQLVQSGAEVKKPGSSVKVSCKASGGTFNSHAISWVRQAPGQGLEWMGGINPILGIANYAQKFQGRVTITADESTSTAYMELSSLRSEDTAVYYCARHYEIQIGRYGMNVYYLMYRFASWGQGTLVTVSS
VL: DIQMTQSPSSLSASVGDRVTITCRASQGIRSALNWYQQKPGKAPKLLIYNGSTLQSGVPSRFSGSGSGTDFTLTISSLQPEDFAVYYCQQFDGDPTFGQGTKVEIK
notes: variable region of 1D05 as in PDB 2XTJ, on a human IgG constant region with an HRV3C cleavage site in the hinge; Fab part after cleavage; variable region of 1D05 as in PDB 2XTJ, on a human constant region; Variable regions were synthesised and subcloned into pVRC8400 vectors containing human IgG constant regions; source: Expi293F cells, co-transfected heavy and light chain; IgG purified, cleaved …
